Source: PubChem BioAssay AID686978 (National Center for Advancing Translational Sciences (NCATS), 2013)
This is a selection; strong and weak results do not stand in their true shares. Results filed as inconclusive are left out. Some salts or complexes appear as unconnected parts, following the source record. Activity calls are given as the source filed them. Calls come from the whole dose curve; as a rule, active = well fitted inhibition curve with a large enough effect; inconclusive = small, poorly fitted or top-dose-only effect; inactive = flat fitted curve, though single readings scatter.
% is set by controls: 0 for no effect and ±100 for the full control effect; potency is the fitted concentration of half-maximal effect.

Test: qHTS for Inhibitors of human tyrosyl-DNA phosphodiesterase 1 (TDP1): qHTS in cells in absence of CPT; note: nearly all actives have a fitted effect of over 55% in size
Conditions: DT40 Tdp1-/- hTDP1 cells, no CPT, ATP luminescence, 48 h; series mostly up to 46.2 µM; activity change, negative = growth inhibition: at the top concentration
With `O=C(NCC1(N2CCCCC2)CCCCC1)c1cccc([N+](=O)[O-])c1` the “activity change, negative = growth inhibition” value was inactive: 7.25%. For `N#CC1(Nc2ccccc2)CCN(CCc2ccccc2)CC1`, the “activity change, negative = growth inhibition” value was inactive: 5.67%. In the case of `CCN1CCC(Nc2ccc(Cl)cc2)CC1`, the “activity change, negative = growth inhibition” value is reported as inactive: 11.1%. In the case of `O=C(NCC1(N2CCCCC2)CCCCC1)c1ccc(OC(F)F)cc1`, the “activity change, negative = growth inhibition” value is reported as inactive: -26%. With `CN1CCN(CCOC(=O)C(O)(c2ccccc2)c2ccccc2)CC1` the “activity change, negative = growth inhibition” value was inactive: 1.25%. For `COc1ccc(NC2CCN(C(=O)OC(C)(C)C)CC2)cc1`, the “activity change, negative = growth inhibition” value was inactive: -29%. With `COc1cc(C(=O)NCC2(N3CCCCC3)CCCCC2)ccc1OC(F)F` the “activity change, negative = growth inhibition” value was inactive: -8.39%. For `O=C(NCC1(N2CCOCC2)CCCCC1)c1cc(=O)[nH]c2ccccc12`, the “activity change, negative = growth inhibition” value was inactive: -26.9%. With `O=C(NCC1(N2CCCCC2)CCCCC1)c1cccc(C(F)(F)F)c1` the “activity change, negative = growth inhibition” value was inactive: -22.5%. In the case of `CCN(CC)CCCNc1ccccc1[N+](=O)[O-].O=[N+]([O-])c1cc([N+](=O)[O-])c(O)c([N+](=O)[O-])c1`, the “activity change, negative = growth inhibition” value is reported as inactive: 1.44%. With `COc1cc(OC)c(C(=O)NCC2(N(C)C)CCCCC2)cc1OC` the “activity change, negative = growth inhibition” value was inactive: 18%. With `CN(C)c1cccc(C(=O)NCC2(N3CCCCC3)CCCCC2)c1` the “activity change, negative = growth inhibition” value was inactive: 0.0881%. In the case of `CC(C)c1ccc(NC2CCN(C(=O)OC(C)(C)C)CC2)cc1`, the Potency is reported as active: 23.1 µM. With `CCCOc1ccc(C(=O)NCC2(N(C)C)CCCCC2)cc1OC` the “activity change, negative = growth inhibition” value was inactive: -15.6%. With `Cc1ccc(C(=O)NCC2(N(C)C)CCCCC2)o1` the “activity change, negative = growth inhibition” value was inactive: -6.19%. With `CCCCOc1ccccc1C(=O)NCC1(N2CCOCC2)CCCCC1` the Potency was active: 13 µM. With `COc1ccc2c(c1O)-c1c(O)c(OC)cc3c1[C@H](C2)[N+](C)(C)CC3.O=[N+]([O-])c1cc([N+](=O)[O-])c([O-])c([N+](=O)[O-])c1[O-]` the “activity change, negative = growth inhibition” value was inactive: -3.33%. In the case of `O=C(NCC1(N2CCCCC2)CCCCC1)c1cncc(Br)c1`, the “activity change, negative = growth inhibition” value is reported as inactive: -0.666%. In the case of `CN1CCC(Nc2cccc(F)c2)CC1`, the “activity change, negative = growth inhibition” value is reported as inactive: -1.72%. In the case of `O=C(OC1CN2CCC1CC2)c1ccc([N+](=O)[O-])cc1` (configuration not stated), the “activity change, negative = growth inhibition” value is reported as inactive: -7.9%. With `Cc1cccc(NC2(C#N)CCN(Cc3ccccc3)CC2)c1` the “activity change, negative = growth inhibition” value was inactive: -1.69%. For `CSc1ccccc1C(=O)NCC1(N2CCCCC2)CCCCC1`, the “activity change, negative = growth inhibition” value was inactive: -28.2%. With `O=C(NCC1(N2CCCCC2)CCCCC1)c1cccs1` the “activity change, negative = growth inhibition” value was inactive: 3%. With `O=C(NCC1(N2CCCCC2)CCCCC1)c1ccc(=O)[nH]c1` the “activity change, negative = growth inhibition” value was inactive: 16.4%. For `CCOC(=O)N1CCC(Nc2ccc(OC)cc2)CC1`, the “activity change, negative = growth inhibition” value was inactive: -28.8%. For `O=C1C(O)=C([N+](=O)[O-])C(=O)C(O)=C1[N+](=O)[O-]`, the “activity change, negative = growth inhibition” value was inactive: -0.0148%. With `COc1ccc(Cl)cc1C(=O)NCC1(N2CCOCC2)CCCCC1` the Potency was active: 16.4 µM. For `O=C(OC1CN2CCC1CC2)C1c2ccccc2Oc2ccccc21` (configuration not stated), the Potency was active: 16.4 µM. In the case of `O=C(NCC1(N2CCCCC2)CCCCC1)c1ccc(Cl)s1`, the “activity change, negative = growth inhibition” value is reported as inactive: -25.6%. With `N#CC1(Nc2ccccc2)CCN(Cc2ccccc2)CC1` the “activity change, negative = growth inhibition” value was inactive: -1.08%. With `Cc1cc(C)cc(N(C(=O)c2ccccc2)C2CCN(C(=O)OC(C)(C)C)CC2)c1` the Potency was active: 25.9 µM. For `O=C(NCC1(N2CCCCC2)CCCCC1)c1ccc(Cl)nc1`, the “activity change, negative = growth inhibition” value was inactive: 5.79%. For `COc1ccc(NC2CCN(CCc3ccccc3)CC2)c(OC)c1`, the “activity change, negative = growth inhibition” value was inactive: -13.3%. In the case of `CCOC(=O)N1CCC(Nc2ccc(F)cc2)CC1`, the “activity change, negative = growth inhibition” value is reported as inactive: 3.16%. In the case of `O=C(NCC1(N2CCCCC2)CCCCC1)c1ccc(F)cc1`, the “activity change, negative = growth inhibition” value is reported as inactive: -6.91%. For `O=P1(N(CCCl)CCCl)SCCCS1`, the “activity change, negative = growth inhibition” value was inactive: 7.6%. For `O=C1CCN(Cc2ccccc2)CC1`, the “activity change, negative = growth inhibition” value was inactive: -2.26%. With `COc1cc(C(=O)NCC2(N(C)C)CCCCC2)ccc1OC(F)F` the “activity change, negative = growth inhibition” value was inactive: -32.9%. For `CCOC(=O)N1CCC(Nc2cccc(C)c2)CC1`, the “activity change, negative = growth inhibition” value was inactive: 13.7%. In the case of `Cc1ccc(NC2(C#N)CCN(Cc3ccccc3)CC2)cc1`, the “activity change, negative = growth inhibition” value is reported as inactive: 8.4%. For `Fc1ccccc1NC1CCN(Cc2ccccc2)CC1`, the “activity change, negative = growth inhibition” value was inactive: 7.93%. In the case of `Cc1ccc(C(=O)NCC2(N3CCCCC3)CCCCC2)o1`, the “activity change, negative = growth inhibition” value is reported as inactive: 6.33%. For `COc1cc(OC)cc(C(=O)NCC2(N3CCCCC3)CCCCC2)c1`, the “activity change, negative = growth inhibition” value was inactive: -13.5%. In the case of `CN(C)c1ccc(C(=O)NCC2(N3CCCCC3)CCCCC2)cc1`, the “activity change, negative = growth inhibition” value is reported as inactive: -25%. In the case of `CC(C)(C)c1ccc(C(=O)NCC2(N3CCOCC3)CCCCC2)cc1`, the Potency is reported as active: 16.4 µM. In the case of `O=C(NCC1(N2CCCCC2)CCCCC1)c1ccco1`, the “activity change, negative = growth inhibition” value is reported as inactive: 10.6%. In the case of `Cc1ccccc1C(=O)NCC1(N(C)C)CCCCC1`, the “activity change, negative = growth inhibition” value is reported as inactive: 3.07%. In the case of `CCN1CCC(Nc2cccc(F)c2)CC1`, the “activity change, negative = growth inhibition” value is reported as inactive: -11%. For `Cc1ccccc1NC1(C#N)CCN(Cc2ccccc2)CC1`, the “activity change, negative = growth inhibition” value was inactive: -3.88%. With `CCCOc1ccc(C(=O)NCC2(N(C)C)CCCCC2)cc1` the “activity change, negative = growth inhibition” value was inactive: 34%. In the case of `O=C(O)C1(Nc2ccccc2)CCN(Cc2ccccc2)CC1`, the “activity change, negative = growth inhibition” value is reported as inactive: -4.69%. With `CN1CCC(Nc2ccc(F)c(Cl)c2)CC1` the “activity change, negative = growth inhibition” value was inactive: -16%. In the case of `CN1CCC(Nc2ccc(Cl)cc2)CC1`, the “activity change, negative = growth inhibition” value is reported as inactive: 8.72%. For `CCC(CO)(C(=O)OC1CN2CCC1CC2)c1ccccc1` (configuration not stated), the “activity change, negative = growth inhibition” value was inactive: -20.4%. With `COc1cc(OC)cc(C(=O)NCC2(N3CCOCC3)CCCCC2)c1` the “activity change, negative = growth inhibition” value was inactive: -0.157%. In the case of `COc1cccc(C(=O)N(c2cc(C)cc(C)c2)C2CCN(C(=O)OC(C)(C)C)CC2)c1`, the Potency is reported as active: 18.4 µM. With `COc1ccc(C(=O)NCC2(N3CCOCC3)CCCCC2)cc1OC` the “activity change, negative = growth inhibition” value was inactive: -6.26%. For `O=C(O)c1cccc(Nc2c([N+](=O)[O-])cc([N+](=O)[O-])cc2[N+](=O)[O-])c1`, the “activity change, negative = growth inhibition” value was inactive: -4.54%. In the case of `O=C(OC1CN2CCC1CC2)C1c2ccccc2C=Cc2ccccc21` (configuration not stated), the Potency is reported as active: 16.4 µM. In the case of `N/C(=N\O)c1c(N)no[n+]1[O-]`, the “activity change, negative = growth inhibition” value is reported as inactive: -2%. With `CCOC(=O)N1CCC(Nc2ccc(C)cc2)CC1` the “activity change, negative = growth inhibition” value was inactive: -27%. For `CCOC(=O)C(CC)C1=NC(C)(C)Cc2ccccc21.O=[N+]([O-])c1cc([N+](=O)[O-])c(O)c([N+](=O)[O-])c1` (configuration not stated), the “activity change, negative = growth inhibition” value was inactive: -1.33%. In the case of `N#Cc1ccc(C(=O)NCC2(N3CCCCC3)CCCCC2)cc1`, the “activity change, negative = growth inhibition” value is reported as inactive: -7.38%. With `CCCN1CCC(Nc2cc(OC)cc(OC)c2)CC1` the “activity change, negative = growth inhibition” value was inactive: 7.31%. For `O=c1[nH]c2ccccc2n1C1CCN(C(c2ccccc2)c2nnnn2C2CCCC2)CC1` (configuration not stated), the “activity change, negative = growth inhibition” value was inactive: -85.1%. For `c1ccc(CN2CCC(Nc3ccccc3)CC2)cc1`, the “activity change, negative = growth inhibition” value was inactive: -9.14%. With `CN(C)C1(CNC(=O)c2cccc(C#N)c2)CCCCC1` the “activity change, negative = growth inhibition” value was inactive: 2.15%.
